From patent US8975259B2, “Compositions and methods for inhibiting G protein signaling” (University of Rochester, priority 2007, dated 2015)

Tested on: acute morphine antinociceptive tolerance in mice
Assay: Acute morphine antinociceptive tolerance (repeated i.c.v. dosing, tail-flick)
Assay type: in vivo, mouse
Settings: morphine alone

CN1CC[C@]23c4c5ccc(O)c4O[C@H]2[C@@H](O)C=C[C@H]3[C@H]1C5.O=S(=O)(O)O [morphine, Morphine sulfate]
shift of morphine ED50 from time 0 (4 hr): 8 fold | shift of morphine ED50 from time 0 (6 hr): 16 fold
